# Test results reported in patent US5731334A, “Method for treating cancer using taxoid onium salt prodrugs” (priority 1995, dated 1998).
# What was measured:
# [1] = test system: PC-3 prostate carcinoma cells; assay: XTT dye binding cytotoxicity assay, PC-3; assay type: cell-based; conditions: Homo sapiens, 72 h
# Protocol: All cell lines described herein were obtained from the ATCC and maintained in media formulations as recommended by the supplier. The cell lines were tested for mycoplasma contamination prior to incubation at 37° C. in 5% carbon dioxide. Normal human dermal fibroblasts, peripheral blood lymphoblasts and mammary epithelial cells were obtained from Clonogenic Cor., San Diego, Calif. and were maintained under the above incubation conditions in special media provided by the supplier.
# Antiproliferative activities of the onium salts were determined using the XTT dye binding assay. Cells were harvested with trypsin/EDTA (Irvine Scientific), washed, resuspended in the appropriate medium, and counted in a hemocytometer using Trypan Blue to determine viability. Then 10^4 cells/well were added to 96 well microtiter plates and incubated for 24 hours before addition of drug at concentrations in the range of 10^-4 to 10^-13 molar by direct addition from DMSO solutions. After 72 hours, XTT binding dye was added and incubation was continued for 4 hours. The inhibition of cell proliferation was quantified using a Molecular Devices Microplate Reader. The absorbance of XTT was measured at […]. The concentration of drug which inhibited growth of cells by 50% was calculated from duplicated determinations.
# [2] = human
# [3] = test system: tumor cell lines
# [4] = test system: B 16 melanoma; conditions: relative to taxol; cited from earlier work
# [5] = cited from earlier work
compound,measurement,setting,value
"CC(=O)O[C@@]12CO[C@@H]1C[C@H](O)[C@@]1(C)C(=O)[C@H](O)C3=C(C)[C@@H](OC(=O)[C@H](O)[C@@H](NC(=O)OC(C)(C)C)c4ccccc4)C[C@@](O)([C@@H](OC(=O)c4ccccc4)[C@H]21)C3(C)C [Compound 5, N-debenzoyl-N-tert-butoxycarbonyl-10-deacetyl Taxol, reference compound]",IC50,[1],0.46 nM
same,Plasma Stability % EtAc extractable,[2],95%
same,cytotoxicities higher than taxol or its onium salts,[3],~10
same,in vivo activity on B 16 melanoma,[4],better in vivo activity on B 16 melanoma
same,recommended dose,[5]; every 3 weeks,100 mg/m^2
same,dose beyond which alopecia was observed in the majority of patients,[5]; in vivo,> 70 mg/m^2
same,dose beyond which delayed and cumulative skin reactions occurred,[5]; in vivo,> 70 mg/m^2
